The source of these data is patent US11001838B2, “Platform for screening phosphomevalonate decarboxylase” (The Regents of the University of California, priority 2017, dated 2021).

“And” between values parts separate entries of the source, which are not always exact repeats. Equal entries are not always repeated.

For series [1], the system named is E. coli DH1. Description: Growth of E. coli DH1 under the screening conditions (MEP pathway blocked by fosmidomycin, IPP-bypass pathway + IPK).
Series [2] relates to E. coli DH1. Description: Isopentenol production in E. coli via IPP-bypass MVA pathway (GC-FID). The conditions noted are these: for isopentenol titer: 48 hours after induction. The series is classed as cell-based, Escherichia coli.
Series [3] can be described thus: In vitro enzyme kinetics of PMDsc variants (pyruvate kinase/lactate dehydrogenase coupled assay). The series is classed as biochemical. The conditions noted are these: for Ki: MVAP up to 100 mM, read-out: KI (substrate inhibition); for kobs: observed turnover number calculated at 100 mM MVAP.
The mark [4] stands for this setting: Table 2, screening conditions, standard deviation in brackets.
The mark [5] stands for this setting: Table 2, MVAP 0.100-4.0 mM, standard error in brackets.
Setting [6] is: Table 2, MVAP, standard error in brackets.

B1: R74H-R147K-M212Q: PMDsc triple mutant (protein)
chain: MTVYTASVTAPVNIATLKYWGKRDTKLNLPTNSSISVTLSQDDLRTLTSAATAPEFERDTLWLNGEPHSIDNEHTQNCLRDLRQLRKEMESKDASLPTLSQWKLHIVSENNFPTAAGLASSAAGFAALVSAIAKLYQLPQSTSEISKIARKGSGSACRSLFGGYVAWEMGKAEDGHDSMAVQIADSSDWPQMKACVLVVSDIKKDVSSTQGQQLTVATSELFKERIEHVVPKRFEVMRKAIVEKDFATFAKETMMDSNSFHATCLDSFPPIFYMNDTSKRIISWCHTINQFYGETIVAYTFDAGPNAVLYYLAENESKLFAFIYKLFGSVPGWDKKFTTEQLEAFNHQFESSNFTARELDLELQKDVARVILTQVGSGPQETNESLIDAKTGLPKE
B1: the Growth rate in the series with E. coli DH1 [1] (setting [4]) is 0.79 (0.03) hr^−1; in the series with E. coli DH1 [1] (Table 3), 0.79 h⁻¹. For the same molecule, the isopentenol titer in the series on E. coli DH1 [2] (listed as R74H-M212Q-R147K) is 1079.1 mg/L; in the series on E. coli DH1 [2] (text and figure legends) it was 1,080±30 mg/L and 1,079 mg/L. In the series with E. coli DH1 [2], the “48 hr Titer (isopentenol)” value was 1079 (27) mg/L and 1079 mg/L. Moreover, in series [3], the Ki amounted to 80 mM. Moreover, the kcat in series [3] (setting [5]) was 0.16 (0.02) sec^−1; in series [3] (Table 3) it was 0.16 s⁻¹. Further, the Km in series [3] (setting [6]) worked out at 400 µM; in series [3] (Table 3) it was 430 µM. Also, the kobs in series [3] (Table 3) was 0.07 s⁻¹.

B2: I226V: PMDsc mutant I226V (protein)
chain: MTVYTASVTAPVNIATLKYWGKRDTKLNLPTNSSISVTLSQDDLRTLTSAATAPEFERDTLWLNGEPHSIDNERTQNCLRDLRQLRKEMESKDASLPTLSQWKLHIVSENNFPTAAGLASSAAGFAALVSAIAKLYQLPQSTSEISRIARKGSGSACRSLFGGYVAWEMGKAEDGHDSMAVQIADSSDWPQMKACVLVVSDIKKDVSSTQGMQLTVATSELFKERVEHVVPKRFEVMRKAIVEKDFATFAKETMMDSNSFHATCLDSFPPIFYMNDTSKRIISWCHTINQFYGETIVAYTFDAGPNAVLYYLAENESKLFAFIYKLFGSVPGWDKKFTTEQLEAFNHQFESSNFTARELDLELQKDVARVILTQVGSGPQETNESLIDAKTGLPKE
With B2, the Growth rate in the series with E. coli DH1 [1] (setting [4]) is 0.35 (0.01) hr^−1. Further, in the series with E. coli DH1 [2], the “48 hr Titer (isopentenol)” value is 633 (53) mg/L. The kcat in series [3] (setting [5]) is given as 0.16 (0.01) sec^−1. In series [3] (setting [6]), the Michaelis-Menten constant (Km) is 340 µM.

B3: R74G-R147K-M212Q: PMDsc triple mutant (protein)
chain: MTVYTASVTAPVNIATLKYWGKRDTKLNLPTNSSISVTLSQDDLRTLTSAATAPEFERDTLWLNGEPHSIDNEGTQNCLRDLRQLRKEMESKDASLPTLSQWKLHIVSENNFPTAAGLASSAAGFAALVSAIAKLYQLPQSTSEISKIARKGSGSACRSLFGGYVAWEMGKAEDGHDSMAVQIADSSDWPQMKACVLVVSDIKKDVSSTQGQQLTVATSELFKERIEHVVPKRFEVMRKAIVEKDFATFAKETMMDSNSFHATCLDSFPPIFYMNDTSKRIISWCHTINQFYGETIVAYTFDAGPNAVLYYLAENESKLFAFIYKLFGSVPGWDKKFTTEQLEAFNHQFESSNFTARELDLELQKDVARVILTQVGSGPQETNESLIDAKTGLPKE
Regarding B3, in the series with E. coli DH1 [2] (48 hours), the “isopentenol titer after 48 hours, fold less than that of R74H-R147K-M212Q” value is recorded as 135 fold. Moreover, the “48 hr Titer (isopentenol)” value in the series on E. coli DH1 [2] was 8 (1) mg/L and 8 mg/L. The isopentenol titer in the series on E. coli DH1 [2] (text and figure legends) was 8 ± 1 mg/L. In addition, the Ki in series [3] came to 11 mM. Further, the kcat in series [3] (setting [5]) is 0.22 (0.04) sec^−1. Further, the Km in series [3] (setting [6]) turned out to be 500 µM. In series [3] (Table 3), the Km came to 500 µM, the kcat was determined as 0.22 s⁻¹ and the kobs is 0.022 s⁻¹.

The term Km denotes the concentration of substrate that gives half-maximal velocity.
